B1: GLP-2 mutant fusion protein SEQ ID NO:28 (Fc fusion)
chain: HGDGSFSDEMNTILDNLAARDFINWLINGGPSSGAPPPSGGGGSGPAGPNESKYGPPCPPCPAPEFLGGPSVFLFPPKPKDTLMISRTPEVTCVVVDVSQEDPEVQFNWYVDGVEVHNAKTKPREEQFASTYRVVSVLTVLHQDWLNGKEYKCKVSNKGLPSSIEKTISKAKGQPREPQVYTLPPSQEEMTKNQVSLTCLVKGFYPSDIAVEWESNGQPENNYKTTPPVLDSDGSFFLYSRLTVDKSRWQEGNVFSCSVMHEALHNHYTQKSLSLSLG
B2: GLP-2 mutant fusion protein SEQ ID NO:27 (Fc fusion)
chain: HGDGSFSDEMNTILDNLAARDFINWLIQTKNGGPSSGAPPPSGGGGSGGGGSESKYGPPCPPCPAPEFLGGPSVFLFPPKPKDTLMISRTPEVTCVVVDVSQEDPEVQFNWYVDGVEVHNAKTKPREEQFASTYRVVSVLTVLHQDWLNGKEYKCKVSNKGLPSSIEKTISKAKGQPREPQVYTLPPSQEEMTKNQVSLTCLVKGFYPSDIAVEWESNGQPENNYKTTPPVLDSDGSFFLYSRLTVDKSRWQEGNVFSCSVMHEALHNHYTQKSLSLSLG

Molecular target: GLP-2 receptor
Experiment: cell-based or functional assay

Binder	EC50 (nM), luciferase reporter gene assay in GLP-2R/Luc-CHO cells [nM]
B1	23.2
B2	92.1

— patent US20190241639A1 (ZHEJIANG DOER BIOLOGICS, published 2019)
